Measured values as given in PubChem BioAssay AID485273 (Sanford-Burnham Center for Chemical Genomics, 2010).
Only a part is listed here, and it is no random draw. Active and inactive are the calls of the source. Cut-off read from the data, not from the text of the source: active = inhibition above about 45% (passing the limit was not always enough); inconclusive = no clear call, values can overlap the other calls.

The chains behind the UniProt entries cited, without tags or fusion partners. Where a name states a change or a piece, a line headed by the entry shows the natural chain unless it says otherwise.
UniProt P61088: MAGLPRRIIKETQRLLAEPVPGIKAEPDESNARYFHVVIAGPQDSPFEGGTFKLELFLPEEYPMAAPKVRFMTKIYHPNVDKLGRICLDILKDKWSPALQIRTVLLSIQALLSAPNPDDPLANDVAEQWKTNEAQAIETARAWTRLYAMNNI

What follows are molecules tested against Ubiquitin-conjugating enzyme E2 N (Homo sapiens) (UniProt P61088) (assay: blockers of UBC13 ubiquitin chain synthesis – biochemical, TR-FRET, uHTS, primary screen (AID 485273)). Settings: UBC13 polyubiquitin chain formation, at 20 µM, active compounds read high.

Row | SMILES | inhibition
1 | O=[As](O)(c1ccccc1Br)c1ccccc1Br | inactive: -1.2%
2 | CC1(CBr)Cn2c(nc3ccccc3c2=O)S1 (stereo unspecified) | inactive: 3.4%
3 | COc1ccccc1CNC(=O)COC(=O)C(O)(c1ccccc1)c1ccccc1 | inactive: 0%
4 | Clc1n[nH]nc1-c1nn[nH][15n]1 | inactive: 2.9%
5 | CC(C)(C)C(=O)NC(Sc1ncccn1)C(Cl)(Cl)Cl (stereo unspecified) | inactive: -2.9%
6 | CCC1=CC2Cc3nc4ccc(Cl)cc4c(N)c3C(C1)C2 (stereo unspecified) | inactive: 10.7%
7 | O=P1(Nc2ccccn2)COc2ccccc2OC1 | inactive: -4.7%
8 | CCOP(=O)(NC(=NC(C)c1ccccc1)NC(C)c1ccccc1)OCC (stereo unspecified) | inactive: -0.9%
9 | CCOP(=O)(Nc1ccc(C)cn1)OCC | inactive: 8%
10 | CN(CCCl)Cc1cc(Cl)c(NC2=NCCN2)c(Cl)c1 | inactive: 19.4%
11 | c1nnnn1CCn1cnnn1 | inactive: 0.7%
12 | O=P(Nc1nccs1)(c1ccccc1)c1ccccc1 | inactive: 2.3%
13 | CC(C)C(=O)NC(Sc1ccccc1)C(Cl)(Cl)Cl (stereo unspecified) | inactive: -6.2%
14 | O=C(OC1CN2CCC1CC2)c1cccc(Cl)c1 (stereo unspecified) | inactive: -3.7%
15 | C(Cc1nn[nH]n1)Cc1nn[nH]n1 | inactive: 3.4%
16 | Nc1ccc([As](=O)(O)c2ccc([N+](=O)[O-])cc2)cc1 | inactive: -4.3%
17 | O=[As](O)(c1ccccc1)c1ccc(O)cc1 | inactive: -12.1%
18 | O=[N+]([O-])c1ncn(CCn2cnc([N+](=O)[O-])n2)n1 | inactive: 3%
19 | O=P(Nc1nc2ccccc2s1)(c1ccccc1)c1ccccc1 | inactive: 3.8%
20 | C[C@H]1OP(=O)(Oc2ccccc2)[C@H](O)[C@H](O)[C@H]1N=[N+]=[N-] (stereo partly specified) | inactive: 5%
21 | CN(C)C1(CNC(=O)c2ccc(Cl)c(S(N)(=O)=O)c2)CCCCC1 | inactive: 6.7%

Row | SMILES | inhibition
22 | O=P(Nc1ccccn1)(c1ccc(Br)cc1)c1ccc(Br)cc1 | inactive: 6.2%
23 | CC(NC(=O)COC(=O)C(O)(c1ccccc1)c1ccccc1)c1ccccc1 (stereo unspecified) | inactive: 3.7%
24 | Cc1ccccc1OP(=O)(Nc1ccccn1)Oc1ccccc1C | inactive: 5.5%
25 | CN(C)C(=O)Oc1noc2ccccc12 | inactive: -6.4%
26 | O=C(OC1CN2CCC1CC2)c1ccccc1 (stereo unspecified) | inactive: -4.3%
27 | CCC(=O)N1C2C3N(C(=O)CC)C1C1N(C(=O)CC)C(C(N1C(=O)CC)N3C(=O)CC)N2C(=O)CC | inactive: 2%
28 | COC(=O)c1cc2c(s1)N=C(c1ccccc1)N(C)P2(=O)N1CCOCC1 (stereo unspecified) | inactive: -1%
29 | Cc1ccc(OP(=O)(Nc2ccccn2)Oc2ccc(C)cc2)cc1 | inactive: 3.8%
30 | CC(=O)NC(SC(=S)N(CC(C)C)CC(C)C)C(Cl)(Cl)Cl (stereo unspecified) | inactive: -11.8%
31 | c1ccc(-c2nn[nH]n2)c(-c2nn[nH]n2)c1 | inactive: -18%
32 | CCOC(=O)NC(Sc1ccccc1)C(Cl)(Cl)Cl (stereo unspecified) | inactive: 6.8%
33 | Cc1ccc(NP(=O)(Oc2cccc(C)c2)Oc2cccc(C)c2)nc1 | inactive: -3.9%
34 | O=C(NC1CCS(=O)(=O)C1)NP(=S)(Oc1ccccc1)Oc1ccccc1 (stereo unspecified) | inactive: 1.3%
35 | CCNC(=S)/N=C(\N)N[N+](=O)[O-] | inactive: -3.1%
36 | CC(=O)Nc1ccc([As](=O)(O)O)c(O)c1 | inactive: -4.3%
37 | CC(=O)Nc1ccc(Oc2c([N+](=O)[O-])cc([N+](=O)[O-])cc2[N+](=O)[O-])cc1 | inactive: -1.3%
38 | Cc1ccccc1CN(C)C(=O)COC(=O)C(O)(c1ccccc1)c1ccccc1 | inactive: -2.6%
39 | C[C@H]1OP(=O)(Oc2ccccc2)C[C@@H]2O[C@@H]21 (stereo partly specified) | inactive: 6.1%
40 | C[C@@H]1C=CCP(=O)(Oc2ccccc2)O1 (stereo partly specified) | inactive: -6.1%
41 | CC(=O)c1ccc(N2CC2c2ccncc2)cc1 (stereo unspecified) | inactive: 1.8%
42 | CC(C)(C)C(=O)NC(Sc1ccccc1)C(Cl)(Cl)Cl (stereo unspecified) | inactive: 6.1%

Row | SMILES | inhibition
43 | O=P1(Nc2nc3ccc(Cl)cc3s2)COc2ccccc2O1 (stereo unspecified) | inactive: -1%
44 | CCOc1ccc(C2=NCC(CBr)S2)cc1 (stereo unspecified) | inactive: 24.7%
45 | Oc1ccccc1CNc1ccccn1 | inactive: 5.4%
46 | O=C(NC(Sc1ccncn1)C(Cl)(Cl)Cl)c1ccccc1 (stereo unspecified) | inactive: 3%
47 | Cc1c2non([O-])c-2c(C)[n+](=O)[n+]1[O-] | inactive: 2.2%
48 | Nc1cc(N)c2nonc2c1[N+](=O)[O-] | inactive: -51.3%
49 | CC(C)CC(=O)NC(Sc1ccc(Cl)cc1)C(Cl)(Cl)Cl (stereo unspecified) | inactive: 4.8%
50 | CN1CCCC(OC(=O)C(c2ccccc2)c2ccccc2)C1 (stereo unspecified) | inactive: 6.7%
51 | Clc1ccc(Cl)c(NC2=NCC(CBr)S2)c1 (stereo unspecified) | inactive: 5.6%
52 | COc1ccccc1OP(=O)(Nc1ccc(C)cn1)Oc1ccccc1OC | inactive: 2.8%
53 | Cc1ccc(OP(=O)(Nc2nccs2)Oc2ccc(C)cc2)cc1 | inactive: 2.5%
54 | CN(C(=O)Cc1ccc(Cl)c(Cl)c1)[C@H]1CCCC[C@H]1N1CCCC1 | inactive: 1.1%
55 | Cc1ccc(N/C(=N/P(=O)(N2CCOCC2)N2CCOCC2)N2CCOCC2)cc1 | inactive: 7%
56 | NC(=O)c1cc([N+](=O)[O-])cc([N+](=O)[O-])c1N | inactive: -12.9%
57 | CCN(N=Nc1nonc1N)c1nonc1N | inactive: -3.7%
58 | O=[N+]([O-])c1cc([N+](=O)[O-])c(CCN2CCOCC2)c([N+](=O)[O-])c1 | inactive: -39.7%
59 | Cc1cc(SC(NC(=O)c2ccc(F)cc2)C(Cl)(Cl)Cl)ncn1 (stereo unspecified) | inactive: -8.6%
60 | CCOP(=O)(Nc1ccccc1)OCC | inactive: -4.5%
61 | CN(C(=O)Cc1ccc(Cl)c(Cl)c1)[C@H]1CCCC[C@@H]1N1CCCC1 | inactive: 10%
62 | Cc1ccc(NP(=O)(Oc2ccccc2F)Oc2ccccc2F)nc1 | inactive: 4.2%
63 | O=P(Nc1nc2ccc(Cl)cc2s1)(c1ccccc1)c1ccccc1 | inactive: -1.4%

Row | SMILES | inhibition
64 | CC(=O)Nc1ccc([As](=O)(O)O)cc1 | inactive: -4.5%
65 | O=C(O)c1ccccc1[As](=O)(O)O | inactive: -11.5%
66 | O=[N+]([O-])c1cccc(NC2=NCC(CBr)S2)c1 (stereo unspecified) | inactive: 4.9%
67 | O=[N+]([O-])c1ncn(CCn2ncnc2[N+](=O)[O-])n1 | inactive: 3.8%
68 | CC(C)(C)C(=O)NC(Sc1ccncn1)C(Cl)(Cl)Cl (stereo unspecified) | inactive: -5.8%
69 | O=C(Nc1cc([As](=O)(O)O)ccc1O)c1ccccc1 | inactive: -8.2%
70 | CC1CCN(C(=O)Oc2c(Cl)cc(Cl)c3cccnc23)CC1 | inactive: 6.8%
71 | CC(C)=N/N=C(\N)N[N+](=O)[O-] | inactive: -0.1%
72 | CN(C)C(=O)OCCc1n(C)cc[n+]1C | inactive: 5.1%
73 | CCN(/C(=N/P(=O)(N1CCOCC1)N1CCOCC1)N1CCOCC1)c1ccc(OC)cc1 | inactive: -3.1%
74 | Nc1ccc([As](=O)(O)c2ccc(N)cc2)cc1 | inactive: -2.3%
75 | C[N+]1=C2C=CC=CC=C2SC12C([N+](=O)[O-])=CC([N+](=O)[O-])=C[C-]2[N+](=O)[O-] (stereo unspecified) | inactive: -56.7%
76 | Cc1ccc(NP(=O)(Oc2ccccc2)Oc2ccccc2)nc1 | inactive: 7%
77 | O=[N+]([O-])c1cc([N+](=O)[O-])c(CCNc2ccccc2)c([N+](=O)[O-])c1 | inactive: -55.6%
78 | CCc1nc2c(n1)c1c(non1O)c1c2no[n+]1[O-] | inactive: -12.3%
79 | CC(=O)N1C2C3N(C(C)=O)C1C1N(C(C)=O)C(C(N1C(C)=O)N3C(C)=O)N2C(C)=O | inactive: 7%
80 | O=[N+]([O-])c1cccc2n[nH]nc12 | inactive: -10.8%
81 | COc1ccc(C2=NCC(CBr)S2)cc1 (stereo unspecified) | inactive: -0.2%
